Measured values from publication PMC10707934, “Design and Synthesis of Novel α-Methylchalcone Derivatives, Anti-Cervical Cancer Activity, and Reversal of Drug Resistance in HeLa/DDP Cells” (Molecules, 2023).

Tested on: α-tubulin, β-tubulin in HeLa cells
Assay: Immunofluorescence assay of microtubules, HeLa
Format: cell-based, human
Settings: 24 h, 3k 1, 2, and 4 μM, colchicine and paclitaxel 2.0 μM
Procedure: Experimental groups were established, including a blank control group (0 μM), positive drug groups treated with paclitaxel (2.0 μM) and colchicine (2.0 μM), and intervention groups treated with 3k at concentrations of 1, 2, and 4 μM, all for a duration of 24 h. The cells were then fixed by adding 400 μL of 4% paraformaldehyde to each well and incubating for 30 min. 0.1% Triton was added at a volume of 400 μL per well and allowed to incubate for 10 min. Following this, goat serum (10%) was added at 400 μL per well and incubated for 40 min. Primary antibodies (α-tubulin, β-tubulin) were then incubated overnight at a temperature of 4 °C. Subsequently, secondary antibodies (α-mouse, β-rabbit) were incubated for 1.5 h. DAPI staining was performed at 400 μL per well for 5 min, followed by a wash with PBS. Cell climbing tablets were removed and inverted onto slides with sealer. Photographs were captured using a fluorescent inverted microscope.

SMILES: COc1cc2c(c(OC)c1OC)-c1ccc(OC)c(=O)cc1[C@@H](NC(C)=O)CC2 [colchicine]
- microtubule immunofluorescence (α green, β red): green and red fluorescence of the encapsulated cells weakened
